{"source": "patent US20210139497A1", "about": "“THIENOCYCLIC COMPOUND AND SYNTHESIS METHOD THEREFOR AND APPLICATION THEREOF” (SHANGHAI YUYAO BIOTECH LTD., priority 2017, published 2021)", "system": "mouse bone marrow cells", "conditions": "100 nM PGE2, 8 days, F4/80 and CD11c flow cytometry, FIG. 2", "data": [{"compound": "C[C@H](NC(=O)c1c(Cc2ccc(F)cc2)sc2c1CCOC2)c1ccc(C(=O)O)cc1", "note": "[YJ114, (S)-4-(1-(2-(4-fluorobenzyl)-5,7-dihydro-4H-thieno[2,3-c]pyran-3-carboxamido)ethyl)benzoic Acid]", "values": [{"measurement": "Effect on generation of GM-CSF/IL-4-induced DC suppressed by PGE2", "value": "can abolish the inhibitory effect of PGE2 against the generation of DC"}]}]}
